Experimental data: patent publication US12023388B2, “Detection and treatment of caries and microcavities with nanoparticles” (THE REGENTS OF THE UNIVERSITY OF MICHIGAN, priority 2015, dated 2024)

Columns and labels:
[1] = Zeta potential analysis (Malvern ZetaSizer); format: physicochemical
Text: (§1) Starch nanoparticle samples 1-6 are dispersed at 0.025% solids and analyzed by various particle characterization techniques, including zeta potential and DLS analysis using a Malvern ZetaSizer, and Nanoparticle Tracking Analysis (NTA) using a NanoSight NS300.

[2] = Particle size analysis (DLS, NTA); format: physicochemical
Text: as §1

For FITC-dextran, the zeta potential [1] was “approximately +6 mV” and the particle size [2] was “approximately 100 nm”.
